Results on 2 molecules are retold here after paper PMC10958470 (Virus Research, 2024).

The target of the experiment is SARS-CoV-2 helicase (nsp13) (Severe acute respiratory syndrome coronavirus 2, UniProt P0DTD1). The experiment is described as follows: biochemical. It is filed as biochemical.

With `CC1(C)C(/C=C/C=C/C=C/C=C2\N(CCCCS(=O)(=O)O)c3ccc4ccccc4c3C2(C)C)=[N+](CCCCS(=O)(=O)[O-])c2ccc3ccccc3c21` [cardiogreen], the “Helicase Inhibition [%] 20 µM (PS Inhibition Helicase [%])” value stood at 100.64%.

As for `Cc1c(Cl)c(C)[n+]([O-])c(Cl)c1-c1noc(-c2cc(O)c(O)c([N+](=O)[O-])c2)n1` [opicapone], the inhibition at 20 µM (read-out: Helicase Inhibition [%] 20 µM (PS Inhibition Helicase [%])) worked out at 93.6%.
